Source: PubChem BioAssay AID493206 (National Center for Advancing Translational Sciences (NCATS), 2011)
The entries are a selection whose mix differs from that of the whole data set. Inconclusive results are not listed. Active and inactive are the calls of the source. Calls come from the whole dose curve; as a rule, active = well fitted inhibition curve with a large enough effect; inconclusive = small, poorly fitted or top-dose-only effect; inactive = flat fitted curve, though single readings scatter.

target: Dual specificity tyrosine-phosphorylation-regulated kinase 1A (Homo sapiens) (UniProt Q13627); experiment: Assay for Inhibitors of Dual-Specificity Tyrosine-(Y)-Phosphorylation Regulated Kinase 1A (Kinase-Glo assay): round 2 SAR; details: recombinant DYRK1A, Kinase-Glo ATP depletion luminescence
Excerpt: NIH Molecular Libraries Probe Production Centers Network [MLPCN] NIH Chemical Genomics Center [NCGC] MLPCN Grant: 1R03MH084827-01 PI Name: Tom Misteli NCGC Assay Overview: The CMGC group of protein kinases which includes CDK-like kinases (Clk) and Dyks are essential kinases found in all eukaryotes. Clks have been implicated to play a role in the regulation of alternative splicing; while Dyrks, in particular over expression of Dyrk1A, has been linked to diseases as Down syndrome (DS; OMIM 190685) and Alzheimer disease (AD; OMIM 104300). Among the members of the CMGC group, the Clks and the Dyrks are very closely related therefore to determine validity and selectivity of an active compound observed in the CLK4 qHTS screen (AID:1770), a bioluminescent counter-screen against Dyrk1A was developed. […]
NCGC Assay Protocol Summary: Two uL/well of substrate solution (8uM Dyrktide, 2uM ATP, 25mM Tris-HCl pH 7.5, 10mM MgCl2 , 0.5mM EGTA, 5mM cystein, 0.01% Triton X-100 final concentration) was dispensed into 1536-well assay plates (Greiner, solid white, medium-binding plates) with Aurora Discovery BioRAPTR Flying Reagent Dispenser (FRD, Beckton-Dickenson). […] The plates were spun for 30 seconds (1000 rpm) and incubated at ambient temperature for 2 minutes followed by a luminescence read using Perkin Elmer ViewLux plate reader at 3 seconds exposure time and 2x binning.

Row | Compound | Potency
1 | CCN1/C(=C/C(C)=O)Sc2ccc(OC)cc21 | active: 368 nM
